Measured values published in patent US20150253306A1 (priority 2012, published 2015).

Tested on: Human platelets
Test: mitochondrial toxicity assay, high-resolution respirometry of FCCP-uncoupled human platelets
Conditions: for comparison of safety with respect to mitochondrial toxicity between two drugs: two titration experiments compared, human platelets (FIGS. 7-9)

Structure (SMILES) | mitochondrial toxicity (oxygen flux on titration of the drug) (Human platelets 200*10^6 cells/ml, buffer pH 7.1, FCCP 2 μM, increasing concentrations, then rotenone 2 μM and antimycin 1 μg/ml) | comparison of safety with respect to mitochondrial toxicity between two drugs
COCc1c(C(C)C)nc(C(C)C)c(/C=C/[C@@H](O)C[C@@H](O)CC(=O)O)c1-c1ccc(F)cc1 [Cerivastatin] | displays mitochondrial toxicity as shown by decreased oxygen fluxes with higher concentrations | –
C[C@H]1c2cccc(O)c2C(=O)C2=C(O)[C@]3(O)C(=O)C(C(N)=O)=C(O)[C@@H](N(C)C)[C@@H]3[C@@H](O)[C@@H]21 [Doxycycline] | – | safer than minocycline
CN(CCOc1ccc(CC2SC(=O)NC2=O)cc1)c1ccccn1 (stereo not drawn) [Rosiglitazone] | – | safer drug substance than troglitazone
